Test results published in ChEMBL document CHEMBL3044645, “Synthesis and Pesticidal Activities of N-Phosphinoyl Heterocycles” (J Pestic Sci, 1997).
Some compounds may have been tested in ways that are not shown here.

Legend:
Tetranychus urticae [1] = assay: Acaricidal activity against Tetranychus urticae (two-spotted spider mite) in French bean leaf at 800 ppm after 2 days
Myzus persicae [2] = assay: Aphicidal activity against Myzus persicae (green peach aphid) in cabbage leaf at 800 ppm after 2 days
Myzus persicae [3] = assay: Aphicidal activity against Myzus persicae (green peach aphid) in cabbage leaf at 200 to 800 ppm after 2 days
Tetranychus urticae [4] = assay: Acaricidal activity against Tetranychus urticae (two-spotted spider mite) in French bean leaf at 200 to 800 ppm after 2 days
Myzus persicae [5] = assay: Aphicidal activity against Myzus persicae (green peach aphid) in cabbage leaf at <50 ppm after 2 days
Tetranychus urticae [6] = assay: Acaricidal activity against Tetranychus urticae (two-spotted spider mite) in French bean leaf at <50 ppm after 2 days

SMILES | Activity (Tetranychus urticae [1]) | Activity (Myzus persicae [3]) | other results
CCOP(=O)(SC(C)CC)N1CCCC1 (stereo not drawn) | < 90% |  | Activity (Myzus persicae [2]): < 90%
CCOP(=O)(SC)N1CCOC1=O (stereo not drawn) |  | > 90% | Activity (Tetranychus urticae [4]): > 90%
CCOP(=O)(SC(C)CC)N1CCSC1 (stereo not drawn) | < 90% | > 90% | 
CCCSP(=O)(OCC)N1CCOC1=O (stereo not drawn) |  |  | Activity (Myzus persicae [5]): > 90%; Activity (Tetranychus urticae [6]): > 90%
